According to ChEMBL document CHEMBL1129461 (J Med Chem, 1996):

Molecular target: T1, Protein kinase C epsilon type (Homo sapiens, UniProt Q02156)
T1 sequence (Q02156 whole entry): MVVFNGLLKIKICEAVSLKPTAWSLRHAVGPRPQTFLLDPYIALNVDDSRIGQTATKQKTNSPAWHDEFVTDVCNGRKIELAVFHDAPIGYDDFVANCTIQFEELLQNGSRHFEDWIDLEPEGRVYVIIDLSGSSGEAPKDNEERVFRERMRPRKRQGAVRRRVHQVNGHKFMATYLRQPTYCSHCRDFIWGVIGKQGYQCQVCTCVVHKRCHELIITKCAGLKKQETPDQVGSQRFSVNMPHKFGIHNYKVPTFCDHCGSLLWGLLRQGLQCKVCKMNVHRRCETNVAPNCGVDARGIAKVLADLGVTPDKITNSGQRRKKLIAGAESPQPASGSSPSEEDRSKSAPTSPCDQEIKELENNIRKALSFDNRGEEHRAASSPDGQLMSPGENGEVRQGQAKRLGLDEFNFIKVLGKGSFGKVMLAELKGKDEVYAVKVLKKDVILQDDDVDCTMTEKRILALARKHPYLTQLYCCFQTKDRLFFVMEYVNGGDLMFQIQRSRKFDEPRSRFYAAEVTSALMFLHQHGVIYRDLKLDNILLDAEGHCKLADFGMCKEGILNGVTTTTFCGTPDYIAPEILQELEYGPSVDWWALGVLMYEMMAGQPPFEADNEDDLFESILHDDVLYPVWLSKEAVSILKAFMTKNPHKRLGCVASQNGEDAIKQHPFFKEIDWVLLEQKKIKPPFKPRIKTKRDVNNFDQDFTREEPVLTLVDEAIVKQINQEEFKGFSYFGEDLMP
Experiment: Evaluated against recombinant human Protein kinase C epsilon
Method in brief: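 Recombinant human PKC isozymes expressed in SF9 cells via baculovirus, partly purified (50–90%). 32P transfer from 30 μM [32P]ATP to 200 μg/mL histone IIIS in 20 mM Hepes pH 7.5, 10 mM MgCl2, EGTA, CaCl2, phosphatidylserine, and diacylglycerol at the isozyme-dependent level giving half-maximal activation. 10 min at 30 °C, TCA stop, filter counting. No-lipid background subtracted.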

IC50: 38 nM
SMILES: O=C(NC1CNCCCC1OC(=O)c1cc(O)c(C(=O)c2c(O)cccc2C(=O)O)c(O)c1)c1ccc(O)cc1 (racemic)
